# B1: ADP-ribosylation factor-like protein 2 (Homo sapiens), P36404 (parent)
# chain: MGLLTILKKMKQKERELRLLMLGLDNAGKTTILKKFNGEDIDTISPTLGFNIKTLEHRGFKLNIWDVGGQKSLRSYWRNYFESTDGLIWVVDSADRQRMQDCQRELQSLLVEERLAGATLLIFANKQDLPGALSSNAIREVLELDSIRSHHWCIQGCSAVTGENLLPGIDWLLDDISSRIFTAD
# partner: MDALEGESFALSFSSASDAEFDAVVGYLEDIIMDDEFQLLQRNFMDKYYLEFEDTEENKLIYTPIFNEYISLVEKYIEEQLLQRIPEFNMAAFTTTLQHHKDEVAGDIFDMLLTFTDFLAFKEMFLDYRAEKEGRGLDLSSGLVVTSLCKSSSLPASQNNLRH
# Variants of: B1
# Conditions: with ar2bp_human ARL2BP
row,Variant,effect of a mutation on the interaction
1,MGLDTILKKMKQKERELRLLMLGLDNAGKTTILKKFNGEDIDTISPTLGFNIKTLEHRGFKLNIWDVGGQKSLRSYWRNYFESTDGLIWVVDSADRQRMQDCQRELQSLLVEERLAGATLLIFANKQDLPGALSSNAIREVLELDSIRSHHWCIQGCSAVTGENLLPGIDWLLDDISSRIFTAD [L4D],disrupting interaction
2,MGLLTIDKKMKQKERELRLLMLGLDNAGKTTILKKFNGEDIDTISPTLGFNIKTLEHRGFKLNIWDVGGQKSLRSYWRNYFESTDGLIWVVDSADRQRMQDCQRELQSLLVEERLAGATLLIFANKQDLPGALSSNAIREVLELDSIRSHHWCIQGCSAVTGENLLPGIDWLLDDISSRIFTAD [L7D],disrupting interaction
3,MGDLTILKKMKQKERELRLLMLGLDNAGKTTILKKFNGEDIDTISPTLGFNIKTLEHRGFKLNIWDVGGQKSLRSYWRNYFESTDGLIWVVDSADRQRMQDCQRELQSLLVEERLAGATLLIFANKQDLPGALSSNAIREVLELDSIRSHHWCIQGCSAVTGENLLPGIDWLLDDISSRIFTAD [L3D],disrupting interaction strength
4,MGALTILKKMKQKERELRLLMLGLDNAGKTTILKKFNGEDIDTISPTLGFNIKTLEHRGFKLNIWDVGGQKSLRSYWRNYFESTDGLIWVVDSADRQRMQDCQRELQSLLVEERLAGATLLIFANKQDLPGALSSNAIREVLELDSIRSHHWCIQGCSAVTGENLLPGIDWLLDDISSRIFTAD [L3A],disrupting interaction strength
5,MGLLTRLKKMKQKERELRLLMLGLDNAGKTTILKKFNGEDIDTISPTLGFNIKTLEHRGFKLNIWDVGGQKSLRSYWRNYFESTDGLIWVVDSADRQRMQDCQRELQSLLVEERLAGATLLIFANKQDLPGALSSNAIREVLELDSIRSHHWCIQGCSAVTGENLLPGIDWLLDDISSRIFTAD [I6R],disrupting interaction

# Now from value to variant:
row,effect of a mutation on the interaction,Variant
1,disrupting interaction,MGLLTILKKMKQKERELRLLMLGLDNAGKTTILKKFNGEDIDTISPTLGANIKTLEHRGFKLNIWDVGGQKSLRSYWRNYFESTDGLIWVVDSADRQRMQDCQRELQSLLVEERLAGATLLIFANKQDLPGALSSNAIREVLELDSIRSHHWCIQGCSAVTGENLLPGIDWLLDDISSRIFTAD [F50A]
2,disrupting interaction,MGLLTILKKMKQKERELRLLMLGLDNAGKTTILKKFNGEDIDTISPTLGFNIKTLEHRGFKLNIWDVGGQKSLRSYWRNAFESTDGLIWVVDSADRQRMQDCQRELQSLLVEERLAGATLLIFANKQDLPGALSSNAIREVLELDSIRSHHWCIQGCSAVTGENLLPGIDWLLDDISSRIFTAD [Y80A]
